# Reference: ChEMBL document CHEMBL4196195, “( R)- N-(1-Methyl-2-hydroxyethyl)-13-( S)-methyl-arachidonamide (AMG315): A Novel Chiral Potent Endocannabinoid Ligand with Stability to Metabolizing Enzymes” (J Med Chem, 2018)
# By UniProt entry, the sequences of proteins in these tests, tags left out.
# UniProt P34972, whole entry: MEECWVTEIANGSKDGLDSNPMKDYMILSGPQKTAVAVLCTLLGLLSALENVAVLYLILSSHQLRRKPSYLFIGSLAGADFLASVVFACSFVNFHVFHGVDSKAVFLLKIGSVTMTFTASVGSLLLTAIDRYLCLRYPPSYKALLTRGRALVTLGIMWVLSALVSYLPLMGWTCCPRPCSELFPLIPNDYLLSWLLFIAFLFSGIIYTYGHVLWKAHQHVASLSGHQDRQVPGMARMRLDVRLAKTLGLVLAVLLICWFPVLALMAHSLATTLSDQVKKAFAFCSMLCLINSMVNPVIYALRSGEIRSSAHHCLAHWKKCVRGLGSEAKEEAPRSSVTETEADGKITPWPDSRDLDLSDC
# Molecular target: Cannabinoid receptor 2 (Homo sapiens, UniProt P34972)
# Assay: Displacement of [3H]CP-55,940 from human CB2 receptor expressed in HEK293 cell membranes in absence of FAAH inhibitor PMSF by radioligand binding assay
compound,measurement,value
CCCCC/C=C\C/C=C\C/C=C\C/C=C\CCCC(=O)NCCO [ANANDAMIDE],Ki,160 nM
